Test results from US20250290928A1, “METHOD, KIT AND DEVICE FOR DETECTING EXTRACELLULAR VESICLES” (priority 2022, published 2025).

Legend:
Assay type in all cases: biochemical, Human
[1] = tested on: MMP in the A549-derived extracellular vesicles; assay: Digital detection of A549-derived extracellular vesicles through MMP activity in wells (SB substrates); settings: for Extracellular vesicle concentration: at a concentration of x1, 50 fL; for Expected value λ / Number of positives / Positive ratio: Example 36, EV 5 μg/mL, reporter 5 μM, 30° C.
Method: The concentration of the solution is 10 μg/mL.
50 μL of each of the MMP detection solutions was added to 50 μL of the sample to provide a reaction solution for wells.

[2] = tested on: MMP in the MDA-MB-231-derived extracellular vesicles; assay: Evaluation of MMP activity of MDA-MB-231-derived extracellular vesicles with 96-well plate (SensoLyte 520 MMP Substrate Sampler Kit); settings: for Fluorescence change after 1 hour of reaction at 30° C.: Example 34, EV 4 μg/mL, reporter 5 μM, buffer (4); for Fluorescence change after 2 hours of reaction at 30° C.: MP, EV 3.3 μg/mL
Method: (§1) The concentration of the solution is 8 μg/mL for each of the MDA-MB-231 and A549-derived extracellular vesicles.
(§2) In addition, for detection of MMP activity, 100 μM SB2, SB6, SB7, SB9, SB10, or SB14 of SensoLyte 520 MMP Substrate Sampler Kit (Fluorimetric) AS-71170 was diluted with the buffer (4) to prepare a 10 μM MMP detection solution.
(§3) 50 μL of the MMP detection solution was added to 50 μL of each of the samples, a reaction was performed at 30° C., and MMP activity was evaluated.
The concentration of the MDA-MB-231-derived extracellular vesicles in the solution is 6.7 μg/mL.
In addition, for detection of MMP activity, 1 mM SB2, SB6, SB7, SB9, or SB10 and 1 mM Custom #2T were diluted with the buffer (4) to prepare 10 kinds of MMP detection solutions in which any one of SB2, SB6, SB7, SB9, and SB10 and Custom #2T were each mixed at 10 μM or 2.5 μM.
(§4) 50 μL of each of the MMP detection solutions was added to 50 μL of each of the samples, a reaction was performed at 30° C., and MMP activity was evaluated.

[3] = tested on: MMP in the MDA-MB-231-derived extracellular vesicles; assay: Digital detection of MDA-MB-231-derived extracellular vesicles through MMP activity in wells (SB substrates); settings: for Expected value λ / Number of positives / Positive ratio: 6 h; for Extracellular vesicle concentration / Expected value λ (×1): Example 35, 6 h; for Extracellular vesicle concentration: at a concentration of x1, 50 fL; for Expected value λ (×1): from power approximation equation
Method: The concentration of the solution is 10 μg/mL. […] The solution was further diluted 2-fold to prepare a standard sample at a concentration of x1/4, further diluted 3-fold to prepare a standard sample at a concentration of x1/12, and further diluted 3-fold to prepare a standard sample at a concentration of x1/36. Thus, the standard samples with four concentrations were prepared.
The concentration of the solution is 6.7 μg/mL.
In addition, for detection of MMP activity, 1 mM SB2, SB6, SB7, SB9, or SB10 and 1 mM Custom #2T were diluted with the buffer (4) to prepare 15 kinds of MMP detection solutions in which any one of SB2, SB6, SB7, SB9, and SB10 and Custom #2T were each mixed at 10 μM, 5 μM, or 2.5 μM. In addition, 1 mM Alexa Fluor 647 was used as a standard fluorescent substance, and each of the MMP14 detection solutions contained the standard fluorescent substance at a final concentration of 2 μM.
as §4

[4] = tested on: MMP in the A549-derived extracellular vesicles; assay: Evaluation of MMP activity of A549-derived extracellular vesicles with 96-well plate (SensoLyte 520 MMP Substrate Sampler Kit); settings: Example 34, EV 4 μg/mL, reporter 5 μM, buffer (4)
Method: The MMP14 activity was evaluated with a 96-well plate (manufactured by Thermo Fisher Scientific Inc., model number: 137101). A fluorescence intensity was measured with a fluorescence plate reader (Synergy MX, manufactured by BioTek Instruments, Inc.) at […] every 5 min for 1 hour. For measurement wavelengths, an excitation wavelength of 485±20 nm and a fluorescence wavelength of 528±20 nm were used.
as §1, §2, §3

[5] = Example 35, 30° C., EV 0 (free of extracellular vesicles, pseudopositive)
[6] = Example 35, 30° C., EV 1/4 a.u.
[7] = Example 35, 30° C., EV 1/12 a.u.
[8] = Example 35, 30° C., EV 1/36 a.u.
[9] = Example 35, reporter 5 μM, 30° C., EV 1/2 a.u. (5 μg/mL in reaction solution)

Substance	Expected value λ (×1) ([1]; Example 36, 4 hr)	Extracellular vesicle concentration ([1]; Example 36, 4 hr)	Expected value λ (×1) ([1]; Example 36, 24 hr)	Extracellular vesicle concentration ([1]; Example 36, 24 hr)	Expected value λ ([1]; 4 hr)	Number of positives ([1]; 4 hr)	Positive ratio ([1]; 4 hr)	Expected value λ ([1]; 24 hr)	Number of positives ([1]; 24 hr)	Positive ratio ([1]; 24 hr)	Fluorescence change after 1 hour of reaction at 30° C. [2]	Expected value λ [3, 5]	Number of positives [3, 5]	Positive ratio [3, 5]	Expected value λ [3, 6]	Number of positives [3, 6]	Positive ratio [3, 6]	Expected value λ [3, 7]	Number of positives [3, 7]	Positive ratio [3, 7]	also measured
QXL520-Pro-Leu-Ala-Tyr-Trp-Ala-Arg-Lys(5-FAM)-NH2 (PLAYWARK; QXL520, 5-FAM, C-terminal amide; printed: Pro-Leu-Ala-Tyr-Trp-Ala-Arg-Lys) [SB10]	0.04444	8.887e+08 mL⁻¹	0.00422	8.437e+07 mL⁻¹	0.02222	617	0.02197	0.00211	59	0.00211	36,239 ΔRFU	3.56E−05	1	3.56E−05	0.5005	11,057	0.3938	0.1265	3,336	0.1188	Fluorescence change after 2 hours of reaction at 30° C. ([2]; 1.25 μM with 1.25 μM Custom #2T): 28,057 ΔRFU; Fluorescence change after 2 hours of reaction at 30° C. ([2]; 5 μM with 5 μM Custom #2T): 33,411 ΔRFU; Expected value λ [3, 8]: 0.04927; Number of positives [3, 8]: 1,350; Positive ratio [3, 8]: 0.04808; Extracellular vesicle concentration [3]: 4.8e+10 mL⁻¹; Expected value λ (×1) [3]: 2.3991; Expected value λ [3, 9]: 1.201; Number of positives [3, 9]: 19,627; Positive ratio [3, 9]: 0.699; Fluorescence change after 1 hour of reaction at 30° C. [4]: 1,220 ΔRFU
QXL520-y-Abu-Pro-Cha-Abu-Smc-His-Ala-Dab(5-FAM)-Ala-Lys-NH2 [SB14]	0.02127	4.253e+08 mL⁻¹	0	0 mL⁻¹	0.01063	297	0.01058	0	0	0	6,831 ΔRFU	0.000107	3	0.000107	0.04613	1,266	0.04509	0.05674	1,549	0.05516	change in fluorescence intensity by the MDA-MB-231-derived extracellular vesicles relative to the A549-derived extracellular vesicles ([2]; Example 34, Table 19 vs Table 20): less than 10 times; Expected value λ [3, 8]: 0.007291; Number of positives [3, 8]: 204; Positive ratio [3, 8]: 0.007265; Extracellular vesicle concentration [3]: 4.9e+09 mL⁻¹; Expected value λ (×1) [3]: 0.2451; Expected value λ [3, 9]: 0.141; Number of positives [3, 9]: 3,693; Positive ratio [3, 9]: 0.1315; Fluorescence change after 1 hour of reaction at 30° C. [4]: 801 ΔRFU
